Experimental data published in patent US7132438B2, “Benzimidazole derivatives” (priority 2001, dated 2006).

The chains behind the UniProt entries cited, without tags or fusion partners.
UniProt P51617, whole entry: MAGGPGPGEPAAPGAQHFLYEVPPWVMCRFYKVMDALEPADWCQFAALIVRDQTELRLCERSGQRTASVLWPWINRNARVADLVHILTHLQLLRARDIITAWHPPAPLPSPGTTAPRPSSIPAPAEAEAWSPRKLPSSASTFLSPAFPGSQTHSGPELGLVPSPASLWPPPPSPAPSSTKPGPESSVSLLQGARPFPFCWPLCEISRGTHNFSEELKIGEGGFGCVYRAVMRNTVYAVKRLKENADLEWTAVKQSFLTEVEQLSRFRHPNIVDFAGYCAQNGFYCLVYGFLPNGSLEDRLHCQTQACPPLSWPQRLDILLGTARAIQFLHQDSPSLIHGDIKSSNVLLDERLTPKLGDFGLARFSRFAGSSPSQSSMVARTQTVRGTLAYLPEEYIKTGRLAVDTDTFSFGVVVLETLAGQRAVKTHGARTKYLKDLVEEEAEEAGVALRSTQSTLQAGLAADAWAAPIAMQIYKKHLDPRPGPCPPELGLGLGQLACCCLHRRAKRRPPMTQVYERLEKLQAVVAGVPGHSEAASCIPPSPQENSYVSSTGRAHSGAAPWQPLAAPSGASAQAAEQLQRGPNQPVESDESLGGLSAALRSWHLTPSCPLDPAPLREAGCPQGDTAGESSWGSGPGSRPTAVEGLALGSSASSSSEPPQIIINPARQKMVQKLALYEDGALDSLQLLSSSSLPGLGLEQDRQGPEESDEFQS
UniProt Q9NWZ3, whole entry: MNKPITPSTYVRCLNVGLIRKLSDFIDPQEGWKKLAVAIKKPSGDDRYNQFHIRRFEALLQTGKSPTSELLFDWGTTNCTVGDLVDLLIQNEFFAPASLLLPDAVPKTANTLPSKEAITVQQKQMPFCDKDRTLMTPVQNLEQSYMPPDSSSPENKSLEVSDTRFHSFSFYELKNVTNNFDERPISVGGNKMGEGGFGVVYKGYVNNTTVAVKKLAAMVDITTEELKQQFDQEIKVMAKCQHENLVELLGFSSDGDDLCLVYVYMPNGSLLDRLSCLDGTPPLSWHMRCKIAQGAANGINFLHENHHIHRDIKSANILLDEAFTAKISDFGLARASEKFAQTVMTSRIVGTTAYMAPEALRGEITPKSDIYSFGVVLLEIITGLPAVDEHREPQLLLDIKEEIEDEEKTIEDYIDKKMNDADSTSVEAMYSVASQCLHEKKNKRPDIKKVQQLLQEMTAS

Columns and labels:
[1] = target: IRAK-1 (Homo sapiens, UniProt P51617); test: Enzymatic inhibition assay, IRAK-1 kinase activity (chemiluminescent ELISA); type: biochemical; settings: read-out: IC50 values (μM) IRAK-1; recombinant full-length IRAK-1, 3 μM ATP, 60 min room temperature
[2] = target: IRAK-4 (Homo sapiens, UniProt Q9NWZ3); test: Enzymatic inhibition assay, IRAK-4 kinase activity (chemiluminescent ELISA); settings: read-out: IC50 values (μM) IRAK-4; recombinant full-length IRAK-4, 10 μM ATP, 60 min room temperature

Row | SMILES | IC50 [1] | IC50 [2]
1 | N#Cc1cccc(C(=O)Nc2nc3ccccc3n2CCCO)c1 | < 10 µM | < 10 µM
2 | O=C(Nc1nc2cc(F)ccc2n1CCCCO)c1cccc([N+](=O)[O-])c1 | < 10 µM | < 10 µM
3 | O=C(Nc1nc2cc(CO)ccc2n1[C@H]1CC[C@H](O)CC1)c1cccc([N+](=O)[O-])c1 (single isomer, unassigned) | < 10 µM | < 10 µM
4 | O=C(Nc1nc2ccc(F)cc2n1CCCO)c1cccc([N+](=O)[O-])c1 | < 10 µM | < 10 µM
5 | COc1ccc2c(c1)nc(NC(=O)c1cccc([N+](=O)[O-])c1)n2CCCCO | < 10 µM | < 10 µM
6 | O=C(Nc1nc2cc(F)ccc2n1CCCO)c1cccc([N+](=O)[O-])c1 | < 10 µM | < 10 µM
7 | O=C(Nc1nc2cc(O)ccc2n1CCCO)c1cccc([N+](=O)[O-])c1 | < 10 µM | < 10 µM
8 | Cc1ccc2c(c1)nc(NC(=O)c1cccc([N+](=O)[O-])c1)n2CCCCO | < 10 µM | < 10 µM
9 | CN(C)Cc1ccc2c(c1)nc(NC(=O)c1cccc([N+](=O)[O-])c1)n2CCCO | < 10 µM | < 10 µM
10 | O=C(Nc1nc2cc(F)c(F)cc2n1CCCCO)c1cccc([N+](=O)[O-])c1 | < 10 µM | < 10 µM
11 | N#Cc1cccc(S(=O)(=O)Nc2nc3ccccc3[nH]2)c1 | 10 to 30 µM | –
12 | CNCc1ccc2c(c1)nc(NC(=O)c1cccc([N+](=O)[O-])c1)n2CCCO | < 10 µM | < 10 µM
